The values below are quoted from earlier work in patent publication US20130344157A1, “ENHANCEMENT OF THE EFFICACY OF THERAPEUTIC PROTEINS” (North-West University, priority 2007, published 2013).

For the data set the following is noted: peroral insulin; cited from earlier work.

As for insulin, the “orally administered dose absorbed from the GI tract” value is “less than 0.5%” and the “orally administered dose reaching the central bloodstream intact” value is reported as “less than 0.1%”.
